Results taken from patent US20250144104A1, “DISCOVERY OF A NEW INHIBITOR FOR THE YTH DOMAIN-CONTAINING M6A RNA READERS” (The Trustees of Boston College, priority 2023, published 2025).

Amino acid sequences for entries named in this document (tags omitted). Residues count along the entry.
UniProt Q9H6S0, 1285-1424: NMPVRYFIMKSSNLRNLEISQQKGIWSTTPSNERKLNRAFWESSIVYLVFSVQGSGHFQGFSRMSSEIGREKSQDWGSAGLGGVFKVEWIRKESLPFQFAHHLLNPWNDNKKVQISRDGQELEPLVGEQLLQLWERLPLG

Experiments:
YTH^YTHDC1 = biological target: T1, YTH^YTHDC1 (Homo sapiens, UniProt Q96MU7); test: FP competition assay, YTH domain of YTHDC1 and FAM-m6A-RNA; assay type: binding; conditions: 25 nM FAM-m^6A-RNA; read-out: IC50, FP competition assay against YTH^YTHDC1
T1 construct: YTHDC1 (amino acids 345-509); His-tag (N); made in house; host or cells: E. coli BL21(DE3)
Excerpt: The m^6A nucleoside was ordered from AmBeed. […] 6-(methylamino) purine was purchased from Fisher Scientific.

[1] = tested on: YTH^YTHDF1, YTH^YTHDF2, YTH^YTHDF3, YTH^YTHDC1, YTH^YTHDC2; test: Thermal shift assay, five YTH domain proteins; assay type: binding, human; conditions: 6 μM compound, 4 μM protein, five YTH domains
Protocol: For the positive control, we incubated […] or 16 μM m^6A-RNA with 4 μM YTH^YTHDF1 in the binding buffer with added RNase inhibitor and 5×SYPRO orange dye (Invitrogen) at room temperature for 15 minutes. After incubation, the thermal shift assay was performed in the QuantStudio™ 3 Real-Time PCR System (Thermo Fisher). Each sample was heated from 25° C. to 75° C. ramping by 0.2° C./second; meanwhile, fluorescence intensities were recorded every 0.3° C. with the excitation and emission wavelengths at 470 nm and 570 nm, respectively. Data were first normalized by setting the highest and lowest fluorescence intensities in each melting run to 100% and 0%, respectively. […]
To assess whether N-7 interacted with the YTH domain proteins, we used the thermal shift assay to examine if there were any stabilization effects of the YTH domains by adding N-7. […] For each YTH domain protein, three biological replicates were performed to quantify the errors of the assay. The thermal stabilizations of the YTH domain proteins were analyzed by the change of the Tm (ΔTm) as the difference between the Tm measured on the protein with N-7 or DMSO, and the Tm of protein-only control (FIG. 4B and FIGS. 18A-18E). The interactions between D-6 and YTH domain proteins were assessed using the same method as N-7 (FIGS. 19A-19F).

YTH^YTHDC2 = YTH^YTHDC2 (Homo sapiens, UniProt Q9H6S0); conditions: read-out: IC50, FP competition assay against YTH^YTHDC2; 25 nM FAM-m^6A-RNA

Q: For `O=C1CC2(CCN(c3ncnc4c3ncn4C3CC(CO)(CO)C3)C2)CN1` (stereo not drawn) [N-7], which IC50 (YTH^YTHDC1) is on record?
A: Its IC50 is 48 ± 11 µM.

Q: What about the “increase of melting temperatures of the YTH domain proteins relative to the DMSO control” value [1] of the same compound?
A: Its value is 0.4-0.8 °C.

Q: What about the IC50 (YTH^YTHDC2) of the same compound?
A: The IC50 was 30 ± 7 µM.
